Values of other authors as cited in patent publication US5605911A, “Use of alpha-2 adrenergic drugs to prevent adverse effects of NMDA receptor hypofunction (NRH)” (priority 1995, dated 1997).

System: neurotoxic side effects caused by NMDA antagonists such as PCP or MK-801
Settings: Olney et al 1991, U.S. Pat. No. 5,034,400; cited from earlier work

CCN(CC)CCOC(=O)C(O)(c1ccccc1)c1ccccc1
block of neurotoxic side effects caused by NMDA antagonists: can block the neurotoxic side effects caused by NMDA antagonists
